Test system: CD8+ cells
Test: HLA-A2 tetramer staining of CD8+ cells after in vitro stimulation with peptide or Adeno/ESO
Format: cell-based, human
Settings: vaccinated with S9C and S11L, T cells stimulated in vitro with the labelled agent
Protocol: See Gnjatic, et al., supra, incorporated by reference, for information on the transfection of cells with this construct. Autologous PBLs depleted of CD8^+ cells were infected with the adenoviral constructs, at 100 IU/cell, overnight, at 37° C. in 250 μl serum free medium, and processed further, as described supra.
The results of these studies are summarized in the tables which follow, using exemplary patients vaccinated or not vaccinated with SEQ ID NO: 1 or 2.
Adeno/ESO represents the adenoviral construct expressing the complete NY-ESO-1 antigen. T cells were stimulated in vitro with autologous pBMCs, either pulsed with the indicated peptide, or which had been transduced with Adeno/ESO.

[1] = Patient NW866: no pre-existing immunity
[2] = Patient NW924: pre-existing immunity

Sequence: SLLMWITQCFL (H. sapiens) [SEQ ID NO: 2]
- L9L-tetramet [1]: 3.98%
- S9C-tetramer [1]: 0.06%
- S11L-tetramer [1]: 0.03%
- L9L-tetramet [2]: 5.59%
- S9C-tetramer [2]: 5.88%
- S11L-tetramer [2]: 0.13%

Sequence: LMWITQCFL (H. sapiens) [SEQ ID NO: 3]
- S11L-tetramer [2]: 0.02%
